The target in this assay is Neuronal acetylcholine receptor (Rattus norvegicus) (UniProt P04757+P09483+P12389+P12390+P12392+P43144+Q9JLB5+P12391+P43143+P20420+Q05941).

The values below come from ChEMBL document CHEMBL1123034 (J Med Chem, 1985).

With `CN1CCCC(O)C1` (stereo unspecified), the Mean enhancement of binding came out at 5.2.
